From patent US10851093B2, “Tyrosine kinase inhibitors” (Rigel Pharmaceuticals, Inc., priority 2018, dated 2020) come the findings set out here.

Amino acid sequences for entries named in this document (tags omitted). Residues count along the entry.
UniProt P30530, 26-894 limits assumed: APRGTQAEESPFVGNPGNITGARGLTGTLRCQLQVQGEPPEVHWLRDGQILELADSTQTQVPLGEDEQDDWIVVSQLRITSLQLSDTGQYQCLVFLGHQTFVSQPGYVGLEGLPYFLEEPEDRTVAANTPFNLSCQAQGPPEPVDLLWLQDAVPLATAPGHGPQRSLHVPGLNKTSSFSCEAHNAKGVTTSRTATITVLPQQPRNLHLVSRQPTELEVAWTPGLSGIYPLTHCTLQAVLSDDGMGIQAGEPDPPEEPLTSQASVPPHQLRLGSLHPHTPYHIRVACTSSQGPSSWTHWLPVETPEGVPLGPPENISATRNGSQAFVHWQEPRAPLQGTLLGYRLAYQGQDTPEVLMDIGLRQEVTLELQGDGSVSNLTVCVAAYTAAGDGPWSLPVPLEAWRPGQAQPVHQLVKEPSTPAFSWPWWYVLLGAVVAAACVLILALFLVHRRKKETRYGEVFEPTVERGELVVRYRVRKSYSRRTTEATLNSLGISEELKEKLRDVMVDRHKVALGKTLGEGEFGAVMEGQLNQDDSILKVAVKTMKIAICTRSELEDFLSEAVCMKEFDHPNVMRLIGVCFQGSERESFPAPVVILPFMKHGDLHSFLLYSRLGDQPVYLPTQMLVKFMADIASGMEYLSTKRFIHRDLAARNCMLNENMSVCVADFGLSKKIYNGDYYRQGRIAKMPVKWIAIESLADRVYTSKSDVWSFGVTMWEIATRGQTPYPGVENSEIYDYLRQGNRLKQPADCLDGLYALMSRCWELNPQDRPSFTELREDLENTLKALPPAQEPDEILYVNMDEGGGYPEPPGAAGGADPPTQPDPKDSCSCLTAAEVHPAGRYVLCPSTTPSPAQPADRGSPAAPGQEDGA
UniProt Q12866, 21-999 limits assumed: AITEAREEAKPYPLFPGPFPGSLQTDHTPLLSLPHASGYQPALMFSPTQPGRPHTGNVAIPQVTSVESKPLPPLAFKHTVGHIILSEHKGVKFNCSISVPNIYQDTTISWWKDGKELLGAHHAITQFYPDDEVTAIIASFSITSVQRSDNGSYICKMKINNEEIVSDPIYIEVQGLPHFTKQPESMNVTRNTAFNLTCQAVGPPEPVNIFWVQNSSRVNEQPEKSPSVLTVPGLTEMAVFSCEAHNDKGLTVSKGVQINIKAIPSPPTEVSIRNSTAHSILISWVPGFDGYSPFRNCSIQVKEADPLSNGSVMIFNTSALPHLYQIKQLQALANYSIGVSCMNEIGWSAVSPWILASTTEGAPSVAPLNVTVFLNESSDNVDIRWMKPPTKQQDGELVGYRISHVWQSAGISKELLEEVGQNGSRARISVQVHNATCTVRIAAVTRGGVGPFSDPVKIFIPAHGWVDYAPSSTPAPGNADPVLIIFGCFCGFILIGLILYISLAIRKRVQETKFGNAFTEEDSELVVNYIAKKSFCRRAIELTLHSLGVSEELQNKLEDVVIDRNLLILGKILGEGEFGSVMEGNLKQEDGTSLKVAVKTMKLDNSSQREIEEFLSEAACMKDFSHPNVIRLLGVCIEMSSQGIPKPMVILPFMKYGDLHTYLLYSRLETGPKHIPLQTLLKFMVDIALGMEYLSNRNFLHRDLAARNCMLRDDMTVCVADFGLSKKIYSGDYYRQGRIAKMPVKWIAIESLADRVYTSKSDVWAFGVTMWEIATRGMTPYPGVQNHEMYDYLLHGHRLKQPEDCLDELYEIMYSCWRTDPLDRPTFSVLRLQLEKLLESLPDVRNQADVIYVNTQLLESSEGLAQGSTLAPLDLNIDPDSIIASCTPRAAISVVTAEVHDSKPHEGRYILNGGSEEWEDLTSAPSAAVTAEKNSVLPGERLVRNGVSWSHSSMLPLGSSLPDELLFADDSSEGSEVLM

Assay [1] deals with Axl (Homo sapiens, UniProt P30530). The assay can be described thus: Phospho-AKT HTRF, HUVEC, Axl ABX-L, 8 pt. The settings on record: read-out: Phospho-AKT HTRF, HUVEC, Axl ABX-L, 8 pt, HUVEC cells, pAkt(Ser473) HTRF, Axl ABX-L stimulation. As to the method:
[The source words this procedure for another target and reports this target under the same test.] (§1) Example 13: PAKT HTRF-HUVEC Assay
(§2) Seed HUVECs (10K cells/well) in EBM-2 complete media (EBM-2 basal medium plus EGM-2 BulletKit supplements) overnight at 37° C., 5% CO2 in Costar 96-well white clear-bottom plates. Remove culture media and starve cells for 3-4 hours in 50 μL/well EBM-2 basal medium. Perform serial dilution of compounds in DMSO from 2.5 mM in 4-fold dilutions, and then dilute 1:125 in EBM-2 basal media. Mix 50 μL/well 2× compounds with 50 μL/well HUVECs in duplicate in Costar 96-well white clear-bottom plates. Incubate plates for 1 hour at 37° C., 5% CO2. Cross-link anti-human MerTK antibody to Biotin-SP-conjugated anti-mouse IgG antibody (1:1) to give final concentrations of 5 μg/mL of anti-human MerTK-XL. Stimulate HUVECs with 25 μL/well 5× anti-human MerTK-XL to give final concentrations of 1 ug/mL for 10 minutes at 37° C., 5% CO2. Completely remove media and lyse HUVECs with 40 uL:WELL per well of Cisbio HTRF 1× lysis buffer. Performed pAkt(Ser473) HTRF assay in ProxiPlate-384 Plus, white 384-shallow well microplate according to the vendor protocol and read plates with a SpectralMax Paradigm plate reader. Enter the HTRF values into Athena (Rigel) for curve fitting, EC50 calculation, and database storage.
(In general: Time-resolved FRET reads energy transfer from a long-lived donor to a nearby acceptor.)

The target of assay [2] is MerTK (Homo sapiens, UniProt Q12866). Description: Phospho-AKT HTRF, HUVEC, Mer-XL, 8 pt (pAKT HTRF-HUVEC assay, anti-human MerTK-XL stimulation). Particulars: read-out: Phospho-AKT HTRF, HUVEC, Mer-XL, 8 pt, HUVEC cells, pAkt(Ser473) HTRF, anti-human MerTK-XL stimulation 1 ug/mL 10 minutes. The method, then: as §1, §2

For the compound `COc1cc2c(Oc3ccc(NC(=O)c4nc(-c5ccccc5)c5c(n4)C4CCN5CC4)nc3)ccnc2cc1OCCCN1CCCCC1`, the EC50 came out at 6.7 nM in assay [1] and 4.6 nM in assay [2].
